# Tests used:
# Amino acid sequences for entries named in this document (tags omitted). Residues count along the entry.
# UniProt Q96LA9, whole entry: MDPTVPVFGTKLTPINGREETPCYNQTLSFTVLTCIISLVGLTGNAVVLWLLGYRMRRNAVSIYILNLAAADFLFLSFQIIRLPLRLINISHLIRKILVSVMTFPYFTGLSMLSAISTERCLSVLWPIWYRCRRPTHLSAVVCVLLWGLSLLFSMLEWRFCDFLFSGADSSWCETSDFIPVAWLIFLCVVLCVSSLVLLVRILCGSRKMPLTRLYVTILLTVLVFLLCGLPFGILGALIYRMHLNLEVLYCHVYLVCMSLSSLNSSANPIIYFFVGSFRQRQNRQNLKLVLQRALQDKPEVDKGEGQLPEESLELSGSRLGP
# UniProt Q96RI1, 1-476 isoform 1 limits assumed: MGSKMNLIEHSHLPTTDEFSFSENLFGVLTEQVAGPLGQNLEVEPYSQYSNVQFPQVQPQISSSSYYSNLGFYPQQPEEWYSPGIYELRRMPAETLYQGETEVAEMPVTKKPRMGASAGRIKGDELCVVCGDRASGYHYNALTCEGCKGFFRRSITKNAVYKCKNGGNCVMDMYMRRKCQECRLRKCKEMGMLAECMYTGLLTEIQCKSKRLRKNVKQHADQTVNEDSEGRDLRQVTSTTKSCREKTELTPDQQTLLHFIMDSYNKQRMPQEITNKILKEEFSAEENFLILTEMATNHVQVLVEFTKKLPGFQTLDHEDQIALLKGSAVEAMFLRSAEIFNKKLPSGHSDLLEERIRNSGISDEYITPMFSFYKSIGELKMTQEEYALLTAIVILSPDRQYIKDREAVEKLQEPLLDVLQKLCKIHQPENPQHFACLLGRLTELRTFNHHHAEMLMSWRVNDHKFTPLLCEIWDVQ
# MRGPRX4 = MRGPRX4 (Homo sapiens, UniProt Q96LA9); assay: MRGPRX4 activation, Fluo-8 Ca2+ FLIPR assay in HEK293T cells stably expressing MRGPRX4; format: cell-based; set-up: key to MRGPRX4 activation, Average: fluorescence change dF/F0
# human FXR (NR1H4) = human FXR (NR1H4) (Homo sapiens, UniProt Q96RI1); assay: Human FXR (NR1H4) agonist assessment, FXRE-NanoLuc reporter in HEK293T cells; format: cell-based
smiles,measurement,setting,value
[2H]C1([2H])CC[C@@]2(C)[C@@H](C1)[C@@H](CC)[C@@H](O)[C@@H]1[C@@H]2CC[C@]2(C)[C@@H]([C@H](C)CCC(=O)O)CC[C@@H]12,"MRGPRX4 activation, Average","MRGPRX4; E3-9, Conc. (Log[M]) −4.0",0.196
same,"MRGPRX4 activation, Average","MRGPRX4; E3-9, Conc. (Log[M]) −4.5",−0.004
same,"MRGPRX4 activation, Average","MRGPRX4; E3-9, Conc. (Log[M]) −5.0",0.010
same,"MRGPRX4 activation, Average","MRGPRX4; E3-9, Conc. (Log[M]) −5.4",0.018
same,"MRGPRX4 activation, Average","MRGPRX4; E3-9, Conc. (Log[M]) −5.9",0.015
same,"MRGPRX4 activation, Average","MRGPRX4; E3-9, Conc. (Log[M]) −6.4",0.013
same,"MRGPRX4 activation, Average","MRGPRX4; E3-9, Conc. (Log[M]) −6.9",0.018
same,"MRGPRX4 activation, Average","MRGPRX4; E3-9, Conc. (Log[M]) −7.3",0.015
same,"MRGPRX4 activation, Average","MRGPRX4; E3-9, Conc. (Log[M]) −7.8",0.018
same,"MRGPRX4 activation, Average","MRGPRX4; E3-9, Conc. (Log[M]) −8.3",0.027
same,EC50,"MRGPRX4; read-out: Activity (EC50 μM), MRGPRX4 activation, Ca2+ fluorescence, no activation in tested range reported as III",> 100 µM
same,"Efficacy (maximum measured induction of NanoLuc, normalized to CDCA set as 100%)",human FXR (NR1H4),C (key: A: efficacy >400%; B: 300%<efficacy <=400%; C: 100%<efficacy <=300%; D: efficacy <=100%)
same,EC50,"human FXR (NR1H4); FXR activation, HEK293T FXRE-NanoLuc reporter, 24 hr",< 1 µM

# Reference: patent publication US20260116910A1, “POLYCYCLIC COMPOUNDS AND METHODS THEREOF” (HEPAITECH (BEIJING) BIOPHARMA TECHNOLOGY CO., LTD., priority 2021, published 2026)
